# Data: publication PMC3663048 (Journal of medicinal chemistry, 2011)
# Tests used:
# [1] = tested on: monastrol-arrested A549 cells; assay: Mitotic exit of monastrol-arrested A549 cells; format: cell-based, human; conditions: 5 μM, 45 min
# [2] = tested on: A549 cells; conditions: 5 μM for 30 min, release from 19 into MG132 for 1 h
compound,measurement,setting,value
"C#CC(=O)Nc1ccc2c(c1)/C(=C/c1[nH]c(CC)nc1C)C(=O)N2 [compound 16, (Z)-N-(3-((2-ethyl-4-methyl-1H-imidazol-5-yl)methylene)-2-oxoindolin-5-yl)propiolamide]",Phospho-Ser10 histone H3 staining (mitotic marker),[1],stained brightly
same,Defects in bipolar spindle assembly or chromosome congression,[2],no defects
